## AlphaSeq binding of Ab-14 light chain variants to a spike HR2 peptide

Target: peptide PDVDLGDISGINAS, taken from heptad repeat 2 (HR2) of SARS-CoV-2 spike.

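The starting antibody came from a phage panning campaign against this peptide. These sequences belong to a second round, designed from the earlier measurements on random variants of the parent. Their group label is 14L_Rand (Rand: our label for a block that the file lists under HC and that is probably the random mutants of the ten best first-round binders). AlphaSeq pools MATa yeast showing the antibodies with MATalpha yeast showing the peptide. After mating in shaken culture at 30 °C for 16 h, diploids were selected and their barcode pairs sequenced. The ratio of observed to expected reads was calibrated, replicate by replicate, on BCL2-family standards whose Kd was known from biolayer interferometry. There are six technical replicates.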

Each scFv is VH, a (GGGGS)3 linker, VL, as in the parent Ab-14, and differs from it in the CDRs of the light chain only.
VH: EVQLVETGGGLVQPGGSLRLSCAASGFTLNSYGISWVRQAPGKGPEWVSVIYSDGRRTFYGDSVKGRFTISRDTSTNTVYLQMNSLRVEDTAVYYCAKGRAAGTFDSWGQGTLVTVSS
VL: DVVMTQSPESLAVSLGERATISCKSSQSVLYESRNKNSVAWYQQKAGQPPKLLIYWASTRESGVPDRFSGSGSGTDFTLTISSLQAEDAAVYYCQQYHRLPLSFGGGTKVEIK

The whole VL of each variant is written out.
The read-out is the apparent dissociation constant on a log10 scale (nM): the lower, the stronger.
"n.d." means that the variant was in the library but no mating with the target was seen in that replicate; the authors take this as a sign of poor binding, and no number exists.

| # | VL | log10 Kd (nM) by replicate | empty controls |
|---|---|---|---|
| 1 | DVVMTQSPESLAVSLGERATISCKQSQSVLDESRNKNSVAWYQQKAGQPPKLLIYDASTRESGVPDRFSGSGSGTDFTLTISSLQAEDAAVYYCQQYHRLPLSFGGGTKVEIK | 0.24 0.01 -0.04 -0.17 0.04 0.18 | 2 of 18 (3.30) |
| 2 | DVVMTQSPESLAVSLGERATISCKSLQSVLYESRNKNSVAWYQQKAGQPPKLLIYHASTREDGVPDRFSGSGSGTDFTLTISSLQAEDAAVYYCQQYHSLPLSFGGGTKVEIK | 0.79 0.22 1.66 1.60 0.90 2.17 | 0 of 18 |
| 3 | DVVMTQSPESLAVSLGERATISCKLRGSTEYESRNKNSVAWYQQKAGQPPKLLIYWASTRESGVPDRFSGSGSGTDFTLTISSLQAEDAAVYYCQQYHRLPLSFGGGTKVEIK | 0.97 0.50 0.93 0.49 0.75 0.73 | 1 of 18 (2.00) |
| 4 | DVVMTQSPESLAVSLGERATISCHSSPSVLYESCNKNMVAWYQQKAGQPPKLLIYNASTREMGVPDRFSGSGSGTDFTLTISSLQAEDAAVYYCQQLHRLPLSFGGGTKVEIK | 2.21 3.73 n.d. n.d. 3.23 n.d. | 2 of 18 (2.18) |
| 5 | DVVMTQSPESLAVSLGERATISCKQSQSVLYESRNKNTVAWYQQKAGQPPKLLIYDASTRESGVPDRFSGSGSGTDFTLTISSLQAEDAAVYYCQMYHWLPLSFGGGTKVEIK | 1.77 2.17 2.89 n.d. 2.88 1.56 | 0 of 18 |
| 6 | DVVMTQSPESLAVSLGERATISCKFSQSVLYESRTKNKVAWYQQKAGQPPKLLIYNASTRESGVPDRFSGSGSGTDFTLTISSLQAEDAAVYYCQQYHRLPLSFGGGTKVEIK | 0.96 0.73 0.96 0.97 1.13 1.05 | 1 of 18 (2.92) |
| 7 | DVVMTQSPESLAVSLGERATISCHSSCSVLYESRNKNSVAWYQQKAGQPPKLLIYQASPRESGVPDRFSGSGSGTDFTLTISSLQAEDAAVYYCQQYHRLPLSFGGGTKVEIK | n.d. n.d. n.d. n.d. n.d. n.d. | 0 of 18 |
| 8 | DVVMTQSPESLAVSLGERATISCSLRQSTLYESRNKNSYAWYQQKAGQPPKLLIYWASTAESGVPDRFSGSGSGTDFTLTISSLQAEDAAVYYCQQYFRLPLSFGGGTKVEIK | n.d. n.d. n.d. n.d. n.d. n.d. | 0 of 18 |
| 9 | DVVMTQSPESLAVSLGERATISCKSGKGVLYESRNKNSPAWYQQKAGQPPKLLIYGASTRESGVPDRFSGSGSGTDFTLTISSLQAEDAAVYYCQQYHREPLSFGGGTKVEIK | n.d. n.d. n.d. n.d. n.d. n.d. | 0 of 18 |
| 10 | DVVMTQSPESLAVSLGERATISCKQSQHVLYESRNKNSVAWYQQKAGQPPKLLIYDASTRESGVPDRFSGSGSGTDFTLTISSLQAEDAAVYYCQQYHRLPLSFGGGTKVEIK | 0.41 0.28 0.42 -0.08 0.22 0.29 | 0 of 18 |
| 11 | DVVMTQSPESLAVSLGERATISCKSSQSFTYESRNVNSVAWYQQKAGQPPKLLIYGASTRDSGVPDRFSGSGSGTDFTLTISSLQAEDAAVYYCQQRHRLTLSFGGGTKVEIK | -0.05 0.08 0.06 0.78 0.04 0.46 | 1 of 18 (2.11) |
| 12 | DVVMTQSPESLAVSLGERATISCKSSQSVLFESRNKNSVAWYQQKAGQPPKLLIYDASTRESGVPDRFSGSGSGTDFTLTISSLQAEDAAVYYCQSYHRLPLSFGGGTKVEIK | 0.46 0.15 0.21 0.12 0.10 0.31 | 0 of 18 |
| 13 | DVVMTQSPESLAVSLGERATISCWSSQSWLYESRTYNSVAWYQQKAGQPPKLLIYYASTRESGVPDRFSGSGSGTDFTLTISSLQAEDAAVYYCQQYHRLPLSFGGGTKVEIK | 1.89 n.d. n.d. n.d. n.d. n.d. | 0 of 18 |
| 14 | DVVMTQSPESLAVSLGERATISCKLRQSTLYHSYNKNSVAWYQQKAGQPPKLLIYWASTRESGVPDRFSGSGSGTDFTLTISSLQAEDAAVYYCQQYKRLPLSFGGGTKVEIK | n.d. n.d. n.d. 3.00 0.97 n.d. | 1 of 18 (2.73) |
| 15 | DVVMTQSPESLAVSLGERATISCKSSISYLYESRNKKSRAWYQQKAGQPPKLLIYEFSTRESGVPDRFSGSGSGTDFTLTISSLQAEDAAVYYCQQYHRLPLSFGGGTKVEIK | n.d. n.d. n.d. n.d. n.d. n.d. | 1 of 18 (1.14) |

From the list, the first 2 with no signal in any replicate:

VL,log10 Kd (nM) by replicate,empty controls
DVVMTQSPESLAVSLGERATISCHSSCSVLYESRNKNSVAWYQQKAGQPPKLLIYQASPRESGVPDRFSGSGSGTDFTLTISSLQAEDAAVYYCQQYHRLPLSFGGGTKVEIK,n.d. n.d. n.d. n.d. n.d. n.d.,0 of 18
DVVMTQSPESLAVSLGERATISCSLRQSTLYESRNKNSYAWYQQKAGQPPKLLIYWASTAESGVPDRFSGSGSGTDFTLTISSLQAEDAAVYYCQQYFRLPLSFGGGTKVEIK,n.d. n.d. n.d. n.d. n.d. n.d.,0 of 18

Three control strains display no target. For all light chain designs, 4% of the pairings with them gave a signal, with a median of 2.64 and one signal in twenty below 1.59, so weak values seen in few replicates may be background. Also given: how often the same scFv was detected with the empty control strains, with their mean in brackets.
The range of this assay differs from that of the first round, and the authors advise against merging the two.
The authors' rule: three or more of the six replicates give a measured affinity, fewer mean a poor binder.

Values reported by Li et al. 2023, doi:10.1038/s41467-023-39022-2 (FLAb copy).